Source: ChEMBL document CHEMBL1134521, “Characterization of melanocortin NDP-MSH agonist peptide fragments at the mouse central and peripheral melanocortin receptors” (J Med Chem, 2001)

Amino acid sequences for entries named in this document (tags omitted). A change or cut given only in a name is not applied to a line headed by its entry.
UniProt Q01727: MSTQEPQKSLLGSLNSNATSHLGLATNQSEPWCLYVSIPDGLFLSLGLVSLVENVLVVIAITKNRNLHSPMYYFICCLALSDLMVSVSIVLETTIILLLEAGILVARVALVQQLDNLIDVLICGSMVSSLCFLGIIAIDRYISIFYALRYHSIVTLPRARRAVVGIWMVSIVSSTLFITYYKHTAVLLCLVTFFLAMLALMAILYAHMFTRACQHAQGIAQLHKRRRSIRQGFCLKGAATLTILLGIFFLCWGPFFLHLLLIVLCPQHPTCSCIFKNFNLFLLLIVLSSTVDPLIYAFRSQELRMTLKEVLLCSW

Target: Melanocyte-stimulating hormone receptor (Mus musculus, UniProt Q01727)
Test: Functional activity at the mouse melanocortin 1 receptor
In short: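 HEK-293 cells stably expressing the mouse receptor (calcium phosphate transfection, G418 1 mg/mL), transfected with CRE/β-galactosidase reporter. Lysates read at OD405 with ONPG at 37 °C, normalized to protein and forskolin (10^-4 M) response. EC50 from curve fit, at least three independent experiments.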

EC50	Compound
0.0256 µM	CC(=O)N[C@@H](Cc1cnc[nH]1)C(=O)N[C@H](Cc1ccccc1)C(=O)N[C@@H](CCCN=C(N)N)C(=O)N[C@@H](Cc1c[nH]c2ccccc12)C(N)=O
14.5 µM	CC(=O)N[C@@H](Cc1c[nH]cn1)C(=O)N[C@@H](Cc1ccccc1)C(=O)N[C@@H](CCCN=C(N)N)C(=O)N[C@H](Cc1c[nH]c2ccccc12)C(N)=O
0.0972 µM	CC(=O)N[C@@H](Cc1cnc[nH]1)C(=O)N[C@H](Cc1ccccc1)C(=O)N[C@@H](CCCNC(=N)N)C(=O)N[C@H](Cc1c[nH]c2ccccc12)C(N)=O
7.69 µM	CC(=O)N[C@@H](Cc1c[nH]cn1)C(=O)N[C@@H](Cc1ccccc1)C(=O)N[C@@H](CCCN=C(N)N)C(=O)N[C@@H](Cc1c[nH]c2ccccc12)C(N)=O
